Experimental data reported in patent US20130011427A1 (priority 2009, published 2013).

Tested on: HLA-A24/huCD8α (HLA-A*2402) Tg mice, CD4-depleted splenocytes
Type: cell-based, mouse

Sequence: AKGSRAIWFMWLGARFL [NS5 470-486]
- T cell activation of HLA transgenic mice (SFC/10^6) IFN-γ ELISpot, A24: 183 ± 19 SFC/10^6
